Chains of the proteins cited; added tags and fusions are not shown.
UniProt Q13324, whole entry: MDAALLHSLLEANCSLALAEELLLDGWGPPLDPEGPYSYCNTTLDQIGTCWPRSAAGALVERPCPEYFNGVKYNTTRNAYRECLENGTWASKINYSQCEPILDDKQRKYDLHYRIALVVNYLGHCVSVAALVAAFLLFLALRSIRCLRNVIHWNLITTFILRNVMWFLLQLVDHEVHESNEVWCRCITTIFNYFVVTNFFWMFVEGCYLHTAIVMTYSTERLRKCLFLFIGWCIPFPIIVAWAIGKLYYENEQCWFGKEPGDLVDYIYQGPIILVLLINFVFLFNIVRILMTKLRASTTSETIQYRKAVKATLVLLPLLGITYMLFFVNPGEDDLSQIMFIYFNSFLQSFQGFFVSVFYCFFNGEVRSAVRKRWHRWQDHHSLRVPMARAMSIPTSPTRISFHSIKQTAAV

According to EP4847524A2, “FATTY ACID CONJUGATED CYCLIC PEPTIDES” (dated 2026):

Legend:
[1] = tested on: adrenocorticotropin hormone (ACTH); test: ACTH reduction in adrenalectomized rats, single dose screening; conditions: for percentage ACTH reduction versus vehicle (normalized to t=0): single dose 350nmol/kg subcutaneous, mean (SEM)
Text: Male, Sprague Dawley rats (226-250g/ 55-58 days old) underwent adrenalectomy surgery at Charles River Laboratories prior to shipment. Once delivered, postoperative care was provided by facility personnel. Rats (n=9-10 per group) were maintained single-housed with a 12:12 light/dark cycle. To compensate for the removal of adrenal mineralocorticoids and promote weight maintenance, they were supplemented with 0.9% NaCl and 1% sucrose in their drinking water. Additional pellets, medium high fat/sweet (Research Diets) were provided daily on the cage floor in addition to regular rat chow. Rats were allowed to recover and habituate for a week. Cage change occurred at least two days prior to the start of the experiment and again after one week if required for longer experiments. Water changes occurred every 3-4 days after experiments to avoid additional stress.
All experiments were conducted in the morning, to avoid circadian differences in adrenocorticotropic hormone (ACTH). Prior to collection of a whole blood sample via the tail vein, experimental animals were placed in a rat warmer 15-20 minutes prior to the designated time points. The animals were then placed in a rat restrainer and a 24-gauge catheter was placed in the tail vein. The blood (0.15-0.2mL/ sample) was collected into a 600µL Sarstedt tube that contained 1.2-2.0 mg EDTA-K3/mL. After baseline blood collection, rats were subcutaneously injected with freshly made test article solution. Blood was collected once a day for up to 1 week for screening experiments or up to 3 weeks for the dose response-repeat dose experiments. No more than 10% of blood volume for survival bleeds were taken during any two-week period. Screening experiment timepoints were: baseline-dose, 24 hours, 48 hours and 72 hours; while dose response-repeat dose experiment timepoints were: baseline-dose 1 hour, 24 hours, 48 hours-dose 2, 72 hours, 96 hours-dose 3, 120 hours, 144 hours, and 168 hours.
The whole blood was centrifuged for 3 minutes at 10,000rpm. Approximately 75-150µL of plasma was extracted, placed into an appropriately labeled micro test tube and frozen on dry ice. The plasma was stored at -80°C until time of analysis, performed with a Milliplex MAP kit for Rat Stress Hormone - ACTH (Cat. #RSHMAG-69K). Plates were run with technical duplicates for samples from screening experiments or technical triplicates for samples from the dose response-repeat dose experiments.
The mean value is given for each peptide/dose together with the standard error of mean (SEM). N represents the number of animals per peptide. For example, peptide 101, after dosing at 350nmol/kg, has a 68.4%) (±3.8) reduction in ACTH at 24 hours and a 62.2% (±5.1) reduction of ACTH at 48 hours.

hCRF-R2 = hCRF-R2 (Homo sapiens, UniProt Q13324); test: cAMP assay (HitHunter), antagonist IC50 in CHO-K1 hCRF-R2 cells, with or without BSA
Experimental: Human CHO-KI CRF-R1 (hCRF-R1; Catalog # 95-0047C2) and human CHO-K1 CRF2 (hCRF-R2; Catalog # 95-0048C2) cell lines were purchased from Eurofins.
CHO-K1 Complete Media: DMEM Version (complete medium):Dulbecco's Minimal Essential Media with High Glucose, 4.5% (DMEM-HG), 10% [vol] U.S. Sourced, Certified Fetal Bovine Serum (FBS), and 1X [standard mammalian cell culture concentration] of the following: L-Glutamine, Non-Essential Amino Acids, Hepes Buffer (10 mM final concentration) and a standard antibiotic/antimycotic mix (penicillin, streptomycin, amphotericin B (Gibbco Cat # 15240062).
CHO-K1 Complete Media - HF12 Version is the same as the CHO-K1 Complete Media, DMEM Version (complete medium), except that Ham's F-12 was used as the base media. Cell Plating 2 Reagent (CPR2) - Eurofins DiscoverX Assay Complete Cell Plating 2 Reagent (Cat# 93-0563R2A). Lipofecamine LTX (Invitrogen™ Cat# 15338100). FuGENE 6 (Promega Cat# E2691). Bovine Albumin Fraction V, Fatty Acid Free: MP Biomedicals, Cat. 152401, Lot. S8210.
On Day 0, cryovial(s) containing the frozen cells (approx. 1.0E+6 cells/vial) stored in liquid nitrogen were removed and thawed in a 37°C water bath for 60 seconds and then diluted into fresh CHO-K1 Complete Media that was pre-warmed to 37°C. […]
Eurofins Assay Ready (division arrested) versions of the above hCRF-R1 and hCRF-R2 (hCRF-R1 and hCRF-R2 eXpress cell/assay kits) cells were removed from liquid nitrogen storage and thawed in a 37°C water bath for 30 seconds and then diluted into fresh Cell Plating 2 Reagent that was pre-warmed to 37°C. […]
cAMP was determined utilizing a DiscoverX HitHunter assay Enzyme Fragment Complementation (EF) technology purchased from Eurofins as described in the manufacturing instructions with some adjustments. IC50's were calculated from antagonist dose response curves utilizing interpolated cAMP levels and/or relative light unit (RLU) data. In addition, eXpress assay ready cAMP kits were also utilized with hCRF-R1 and hCRF-R2 division arrested cells according to the manufacturing instructions. […]

[2] = Viscosity (no method described); conditions: in either 10mM phosphate at pH 7 or 10mM TRIS at pH8

Ac-Asp-Leu-Thr-D-Phe-His-Leu-Leu-Arg-Glu-Val-Leu-Glu-Nle-K*-Arg-Glu-Glu-Gln-cVal-Ala-Gln-E#-Ala-Glu-K#-Asn-Arg-Lys-Leu-Nle-Glu-cVal-Ala-CONH2
24hr % ACTH reduction Mean ([1]; 24 hours after single subcutaneous dose 350 nmol/kg, versus vehicle (normalized to t=0), adrenalectomized rats): -68.4%
48hr % ACTH reduction Mean ([1]; 48 hours after single subcutaneous dose 350 nmol/kg, versus vehicle (normalized to t=0), adrenalectomized rats): -62.2%
percentage ACTH reduction versus vehicle (normalized to t=0) ([1]; 24 hours): 68.4%
percentage ACTH reduction versus vehicle (normalized to t=0) ([1]; 48 hours): 62.2%
IC50 (hCRF-R2; read-out: CRFR2 (IC50 nM) BSA (0.1%), BSA (0.1%)): 89 nM
IC50 (hCRF-R2; read-out: CRFR2 (IC50 nM) No Albumin, No Albumin): 3.1 nM
IC50 (hCRF-R2; read-out: CRFR2 IC50 in BSA, assay buffer containing 0.1% BSA, agonist hUCN1 1 nM): 89 nM
viscosity [2]: low viscosity

Where two headings read alike, the source gives them in different places.
